# Antibody variant affinities, Ab-14 light chain, assay B

Source: Li et al. 2023 (doi:10.1038/s41467-023-39022-2), MIT Lincoln Laboratory and A-Alpha Bio; data file from the FLAb repository.

Target: peptide PDVDLGDISGINAS, taken from heptad repeat 2 (HR2) of SARS-CoV-2 spike.

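The starting antibody came from a phage panning campaign against this peptide. This is the validation round: designs drawn from the data on random variants, tested in the same kind of assay. Their group label is 14L_GP_HC (GP: Gaussian process model; HC: hill climbing; a sequence that several methods proposed may carry one label only). Affinity was read by AlphaSeq, a pooled yeast mating assay with surface-displayed partners. Pairs that bind mate more often; barcode pairs of the diploids are counted by sequencing. Scores were corrected for input abundance and mapped to Kd with protein pairs of known affinity run in the same pool. Each pool was mated in six replicate cultures.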

Parent scFv Ab-14: VH joined to VL by the linker GGGGSGGGGSGGGGS. Changes lie in the light chain CDRs alone.
VH: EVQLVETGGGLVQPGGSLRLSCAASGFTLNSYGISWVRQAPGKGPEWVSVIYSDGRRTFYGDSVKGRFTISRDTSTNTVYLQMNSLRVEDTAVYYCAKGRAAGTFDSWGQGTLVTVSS
VL: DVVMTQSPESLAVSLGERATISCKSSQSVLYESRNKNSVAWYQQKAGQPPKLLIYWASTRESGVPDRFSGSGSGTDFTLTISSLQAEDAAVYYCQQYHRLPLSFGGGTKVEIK

Changes read parent residue, position, new residue, counted from the first residue of the VL shown. The read-out is the apparent dissociation constant on a log10 scale (nM): the lower, the stronger. Averages over replicates are reported, and they cover detected replicates only. A pair that was not seen in that replicate is written "n.d."; this usually means weak binding, but a binder can also be missed. In the paper, a design with two or fewer of six values counts as a poor binder.

changes | log10 Kd (nM) by replicate | log10 Kd (nM), mean | control signals
S26G/S28G/S38A/W56G | -0.10 -0.29 -0.30 -0.27 -0.29 -0.25 | -0.25 | 1/18 (4.66)
S25L/S26R/V29T/W56H/S103T | 0.42 0.55 0.13 0.40 0.33 0.89 | 0.45 | 0/18
V29F/W56G/Q96S | 0.08 0.02 -0.08 -0.18 -0.12 0.11 | -0.03 | 1/18 (2.73)
V29W/W56G/T59K | 0.14 0.03 -0.01 -0.02 -0.13 0.08 | 0.01 | 1/18 (3.16)
S25V/S26R/V29T/W56Q | 0.24 -0.10 -0.08 -0.07 0.09 0.23 | 0.05 | 2/18 (2.76)
Q27I/V29Y/K36P/W56E/S62Q | 0.08 -0.06 0.20 -0.28 -0.23 -0.01 | -0.05 | 0/18
K24H/L30A/W56N | 1.07 0.72 0.70 0.69 0.90 0.79 | 0.81 | 2/18 (2.68)
S25L/S26R/Q27M/V29T/W56A | 1.09 0.51 1.16 0.46 1.13 0.97 | 0.89 | 0/18
Q27I/V29Y/R34E/N37Y/W56E/T59Q | n.d. n.d. n.d. n.d. n.d. n.d. | n.d. | 0/18
S25L/S26E/V29K/L30N/W56N | 0.33 0.06 0.06 -0.07 0.17 0.20 | 0.12 | 1/18 (2.53)
S25L/S26R/V29T/K36Q/W56K | 0.50 0.40 0.52 0.34 0.31 0.34 | 0.40 | 0/18
S25V/Q27I/V29Y/Y31M/W56E | 0.71 0.60 0.30 0.30 1.20 0.25 | 0.56 | 0/18
Q27W/R34N/K36V/W56H/S62D | 0.49 0.63 0.77 0.54 1.25 0.72 | 0.73 | 2/18 (1.93)
K24H/Q27P/K36G/W56N/S62E | 1.05 0.47 0.67 1.05 0.52 1.38 | 0.86 | 1/18 (3.01)
S25L/S26M/V29Q | n.d. 2.47 1.18 1.34 1.29 2.13 | 1.68 | 1/18 (0.99)
S25A/W56D/E61S | 0.94 0.71 0.91 0.38 0.48 0.87 | 0.72 | 2/18 (2.85)
Q27L/Y31F/W56N | 0.77 1.10 0.38 0.60 0.62 0.83 | 0.72 | 1/18 (2.90)
K24H/S25F/Q27P/V29T/W56N | -0.57 -0.62 -0.78 -0.73 -0.54 -0.42 | -0.61 | 0/18
S25E/Q27G/V29W/W56G | 0.85 0.70 0.60 0.70 0.63 0.80 | 0.71 | 0/18
S25V/S28E/V29W/W56D | -0.40 -0.59 -0.59 -0.69 -0.59 -0.36 | -0.54 | 0/18
Q27I/V29G/N35M/W56E | 0.65 0.26 0.19 0.23 -0.12 0.27 | 0.25 | 1/18 (2.26)
S25V/N35M/W56D/E61C/S103H | 0.31 0.32 0.10 0.29 0.10 0.31 | 0.24 | 1/18 (4.00)
S25L/V29T/E32D/R34Q/W56H | 0.17 0.12 0.07 -0.08 0.08 0.27 | 0.11 | 3/18 (2.92)
S25V/Q27D/Y31Q/W56D | -0.18 -0.29 -0.31 -0.26 -0.09 -0.07 | -0.20 | 0/18
S25F/N35T/K36S/W56D | 0.19 -0.18 -0.01 -0.25 -0.27 0.10 | -0.07 | 2/18 (1.95)
S25L/S26Q/V29Q/K36F/W56N/S62D | 0.33 0.19 0.09 0.03 0.12 0.27 | 0.17 | 0/18
L30D/Y31N/W56D | 0.19 0.37 0.14 0.11 0.16 0.28 | 0.21 | 1/18 (2.96)
S25M/Y31M/S33H/W56D/H98W | 0.68 0.25 0.35 0.42 0.62 0.50 | 0.47 | 3/18 (1.84)
Q27I/V29Y/W56D | 0.09 -0.02 -0.12 -0.24 -0.16 0.00 | -0.08 | 2/18 (3.97)
Q27I/R34G/W56H/S62D | 1.11 1.51 0.71 1.04 1.09 1.28 | 1.12 | 0/18
S26Y/N35D/W56H/S62D | 1.58 0.78 1.24 1.38 1.51 1.79 | 1.38 | 0/18
S25L/V29W/W56G/A57G | -0.13 -0.13 -0.27 -0.25 -0.29 -0.06 | -0.19 | 1/18 (2.70)
Y31F/E32Q/W56E | 0.28 -0.02 0.15 -0.18 -0.23 0.01 | 0.00 | 1/18 (3.06)
K24A/Q27I/V29Y/R34P/W56E | 1.44 0.86 0.92 0.78 0.72 1.34 | 1.01 | 1/18 (1.78)
K24H/S25L/Q27D/W56N/S103H | -0.10 0.22 -0.20 -0.05 0.18 0.37 | 0.07 | 1/18 (3.19)
K24N/V29W/W56S/A57G/S58N/S62Q | 0.20 -0.05 0.09 -0.07 0.03 0.53 | 0.12 | 1/18 (3.16)
S25Q/V29G/S33W/W56D | 0.41 -0.01 0.22 -0.02 0.09 0.27 | 0.16 | 2/18 (2.12)
S25M/Y31M/S33H/W56E/T59L | 0.21 0.39 -0.21 -0.08 -0.16 0.18 | 0.06 | 1/18 (2.69)
S25F/Q27I/V29Y/W56E/S103M | 0.20 -0.13 -0.17 0.01 -0.02 0.10 | 0.00 | 1/18 (3.96)
S38N/W56H/S62D | 0.53 0.21 0.15 0.08 -0.25 0.43 | 0.19 | 0/18
Q27I/V29Y/R34G/W56N/E61M | 0.19 -0.03 -0.11 -0.17 -0.13 0.06 | -0.03 | 1/18 (2.65)

Excerpt, the final 3 entries:

changes,log10 Kd (nM) by replicate,"log10 Kd (nM), mean",control signals
S25F/Q27I/V29Y/W56E/S103M,0.20 -0.13 -0.17 0.01 -0.02 0.10,0.00,1/18 (3.96)
S38N/W56H/S62D,0.53 0.21 0.15 0.08 -0.25 0.43,0.19,0/18
Q27I/V29Y/R34G/W56N/E61M,0.19 -0.03 -0.11 -0.17 -0.13 0.06,-0.03,1/18 (2.65)

The parent sequence was in this pool as ten entries: three were never detected, three once, and four in most replicates, with averages from 0.34 to 2.37. As a blank, each scFv also met three strains without target: over all light chain designs, 4% of these pairings were detected, typically at 2.64 and seldom below 1.59. For each scFv, signals with the empty controls are counted beside the result, with their mean in brackets. Values of this round are not directly comparable with the first-round values of the same sequences.